For assay [1], the system named is doxorubicin-induced aged C57BL6J mice. The assay can be described thus: Liver damage (AST, ALT) in doxorubicin-aged mice, Example 22-8, Table 37. It counts as in vivo, mouse. As to conditions: serum, amount after aging calculated as 100%. How it is done: Eight-week-old male C57BL6J mice (KRIBB Laboratory Animal Resource Center) were acclimated to the experimental environment for one week. […] The aging-induced mice were randomly assigned to experimental and control groups. LX-403 was mixed with a 10% ethanol solution of PEG400 and administered orally at a concentration of 25 mg/kg or intradermally at a concentration of 1 μM for 21 days. LX-1801 was mixed in distilled water with 4% DMSO, 30% PEG300, and 5% Tween80 and administered intradermally at a concentration of 0.4 μM daily for 21 days. LX-2001 was mixed in PBS and administered intradermally at a concentration of 2 μM daily for 21 days. LX-2002 was mixed in distilled water with 4% DMSO, 30% PEG300, and 5% Tween80 and administered intradermally at a concentration of 2 μM daily for 21 days. […] LX-2005 was mixed in distilled water with 4% DMSO, 30% PEG300, and 5% Tween80 and administered intradermally at a concentration of 90 μM daily for 21 days. LX-2007 was mixed in distilled water with 4% DMSO, 30% PEG300, and 5% Tween80 and administered intradermally at a concentration of 90 μM daily for 21 days. […]
The amounts were measured spectrophotometrically using a kit (Sigma) according to the manufacturer's instructions. […] The amount of each factor after aging was calculated as 100% and compared with the amount of each factor after treatment with the test compound.

In assay [2] the test system is obesity-induced aged C57BL6J mice. The assay can be described thus: Fatty liver (Oil Red O, AST, ALT) in obesity-aged mice, Example 23-5, Table 45. It counts as in vivo, mouse. As to conditions: serum, daily for 21 days, untreated 100%. How it is done: 15-week-old male C57BL6J mice (The Jackson Laboratory) were induced to obesity by a high-fat diet using the same method as in Example 9-1 WO2023-085787 A1. After acclimation to the experimental environment for one week, the mice were randomly assigned to experimental and control groups. […] LX-3002 was mixed in distilled water with 4% DMSO, 30% PEG300, and 5% Tween80 and administered orally at a concentration of 10 mg/kg daily for 21 days. LX-5701 was mixed in PBS and administered orally at a concentration of 360 mg/kg daily for 21 days. LX-6807 was mixed in saline and administered intraperitoneally at a concentration of 1 mg/kg daily for 21 days. The control group received only the solution in the same volume. After the end of drug administration, the methods described in each example below were performed.
Mice were sacrificed, and liver sections were prepared using the same method as in Example 7-3 of WO2023-085787 A1. Fat accumulation was stained with Oil Red O. In addition, AST and ALT, indicators of liver damage, were measured using the same method as in Example 8-8 of WO2023-085787 A1. […] The Oil Red O staining area and the amount of liver damage indicators after obesity-induced aging were calculated as 100% and compared with the values after treatment with the test compound.

On to Tocofersolan [LX-3001], for which, in assay [1], the ALT is reported as 85 (±3.6) % and the AST was 81 (±5.4) %. In assay [2], the AST was 81 (±4.7) %.

(Values after patent US20260306460A1, “COMPOSITION FOR REMOVING AND INHIBITING SENESCENT CELLS, AND USES THEREOF” (LIFECEUTIX CO., LTD., priority 2023, published 2026).)
